Experimental data from patent publication US11866518B2, “Bicyclic peptide ligands specific for TSLP” (BicycleTx Limited, priority 2020, dated 2024).
Read-outs that look alike come from different tables or passages of the source.

Legend:
TSLP [1] = biological target: T1, TSLP (Homo sapiens, UniProt Q969D9); assay: Human TSLP Surface Plasmon Resonance (SPR) binding assay; design: The resulting construct spCD33-6×HN-TEV-hTSLP(29-159)-Avi; 6xHN tag with TEV site (N, cleaved yes); made in house; host or cells: Expi293F cells; conditions: biotinylated human TSLP immobilized on streptavidin chip; 20° C.; steady-state or kinetic 1:1 fit; read-out: hTSLP SPR Kd
T1 sequence (Q969D9 29-159): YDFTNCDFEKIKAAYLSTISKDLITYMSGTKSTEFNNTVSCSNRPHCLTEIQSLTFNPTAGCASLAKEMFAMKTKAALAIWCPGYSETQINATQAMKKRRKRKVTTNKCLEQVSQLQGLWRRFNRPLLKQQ

TSLP [2] = biological target: T1, TSLP; assay: Human peripheral blood mononuclear cell assay (TSLP-induced CCL17/TARC); type: cell-based; design: host or cells: added to human PBMCs from healthy donors
Method: Human peripheral blood mononuclear cells (PMBCs) were obtained from heparinized whole blood (healthy donors) by density gradient centrifugation using Lymphoprep (StemCell Technologies, Vancouver, BC) according to the manufacturers instructions. The PBMCs were washed twice with PBS containing 2 mM EDTA and 2% fetal calf serum (FCS) and reconstituted in RPMI containing 10% FCS and 2% PenStrep at a final concentration of 3 million cells/mL. This cell suspension (100 μL) was aliquoted into the wells of a 96-well flat bottom tissue culture plate. 5 μL of bicycle peptide or vehicle (0.1% DMSO in complete medium) was then added and mixed with 5 μL of TSLPvehicle (complete medium). […] The plate was incubated for 30 minutes are rt. 10 μL of this mixture was added to cells and the plate was incubated for 24 hours in a 10% CO2, humidified incubator at 37° C. The plate was centrifuged at 300×g for 5 min and the collected supernatants frozen at −20° C. for subsequent CCL17/TARC analysis.
CCL17/TARC was determined by MSD (MesoScale Discovery, Maryland, USA) according to the manufacturer's instructions.

Structure (SMILES) | Kd (TSLP [1]) [nM] | inhibition at 10 µM (TSLP [2]; read-out: CCL17 % Inhibition @ 10 μM, […] TSLP) [%] | inhibition at 10 µM (TSLP [2]; human PBMCs, 10 μM peptide, 50 pM TSLP, 24 hours, read-out: CCL17 % Inhibition @ 10 μM, 50 pM TSLP) [%]
CC(=O)N[C@H]1CSCCC(=O)N2CN3CN(C2)C(=O)CCSC[C@H](NC(=O)[C@H](CC(=O)O)NC(=O)[C@H](CCC(=O)O)NC(=O)[C@H](CC(C)C)NC(=O)[C@H](Cc2cccc4ccccc24)NC(=O)[C@H](CCC(N)=O)NC1=O)C(=O)N[C@@H](Cc1c[nH]c2ccccc12)C(=O)N[C@@H](CCCNC(=N)N)C(=O)NCC(=O)N[C@@H](Cc1ccc(F)cc1)C(=O)N[C@H](C(N)=O)CSCCC3=O [Example 27, Ac-(SEQ ID NO: 25)] | 12 | 33 | –
CC(=O)N[C@H]1CSCCC(=O)N2CN3CN(C2)C(=O)CCSC[C@H](NC(=O)[C@H](CC(=O)O)NC(=O)[C@H](CCC(=O)O)NC(=O)[C@H](CC(C)(C)C)NC(=O)[C@H](Cc2c[nH]c4ccccc24)NC(=O)[C@H](CCC(N)=O)NC1=O)C(=O)N[C@@H](Cc1c[nH]c2ccccc12)C(=O)N[C@@H](CCCNC(=N)N)C(=O)NCC(=O)N[C@@H](Cc1ccc(F)cc1)C(=O)N[C@H](C(N)=O)CSCCC3=O [Example 4, Ac-(SEQ ID NO: 4)] | – | – | 47
CC[C@H](C)[C@@H]1NC(=O)[C@H](Cc2c[nH]c3ccccc23)NC(=O)[C@H](CCC(N)=O)NC(=O)[C@@H](NC(C)=O)CSCCC(=O)N2CN3CN(C2)C(=O)CCSC[C@H](NC(=O)[C@H](CC(=O)O)NC(=O)[C@H](CCC(=O)O)NC1=O)C(=O)N[C@@H](Cc1c[nH]c2ccccc12)C(=O)N[C@@H](CCCNC(=N)N)C(=O)NCC(=O)N[C@@H](Cc1ccc(F)cc1)C(=O)N[C@H](C(N)=O)CSCCC3=O [Example 57, Ac-(SEQ ID NO: 45)] | 51 | – | –
CC(=O)N[C@H]1CSCCC(=O)N2CN3CN(C2)C(=O)CCSC[C@H](NC(=O)[C@H](CC(=O)O)NC(=O)[C@H](CCC(=O)O)NC(=O)[C@H](CC(C)C)NC(=O)[C@H](Cc2c[nH]c4ccccc24)NC(=O)[C@H](CCC(N)=O)NC1=O)C(=O)N[C@@H](Cc1ccc(Cl)c2ccccc12)C(=O)N[C@@H](CCCNC(=N)N)C(=O)NCC(=O)N[C@@H](Cc1ccc(F)cc1)C(=O)N[C@H](C(N)=O)CSCCC3=O [Example 60, Ac-(SEQ ID NO: 47)] | 62 | – | –
